Measured affinities in a library of Ab-14 heavy chain variants

All variants were tested on one target, the spike HR2 peptide PDVDLGDISGINAS (SARS-CoV-2).

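The parent was found by panning a naive human phage display library on the peptide. The variants were designed computationally from a first round of random CDR variants and then made and measured. Several design methods are mixed in this list. The assay is AlphaSeq: two haploid yeast populations carry antibody and antigen on their surface. After mating in shaken culture at 30 °C for 16 h, diploids were selected and their barcode pairs sequenced. The ratio of observed to expected reads was calibrated, replicate by replicate, on BCL2-family standards whose Kd was known from biolayer interferometry. There are six technical replicates.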

Parent scFv Ab-14: VH joined to VL by a (GGGGS)3 linker. Changes lie in the heavy chain CDRs alone.
VH: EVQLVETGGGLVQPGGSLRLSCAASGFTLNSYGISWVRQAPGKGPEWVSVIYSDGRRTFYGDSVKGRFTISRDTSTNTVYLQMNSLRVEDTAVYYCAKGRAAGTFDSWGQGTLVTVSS
VL: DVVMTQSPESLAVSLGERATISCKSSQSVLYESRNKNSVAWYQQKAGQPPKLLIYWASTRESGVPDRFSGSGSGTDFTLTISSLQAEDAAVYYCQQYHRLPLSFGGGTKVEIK

The parent's heavy chain CDRs are GFTLNSYGIS, VIYSDGRRTFYGDSVK, GRAAGTFDS; each variant's own CDRs replace them letter for letter.
The read-out is the apparent dissociation constant on a log10 scale (nM): the lower, the stronger.
Averages over replicates are reported, and they cover detected replicates only.
An entry "no signal" has no value in the source: the pair was not observed among the diploids in any replicate. This suggests poor binding but is not conclusive.
Some sequences occur more than once in the pool; their replicates are pooled.
The parent sequence was in this pool as ten entries: three were never detected, three once, and four in most replicates, with averages from 0.34 to 2.37.
Values of this round are not directly comparable with the first-round values of the same sequences.
The authors' rule: three or more of the six replicates give a measured affinity, fewer mean a poor binder.
Background: pairings of all heavy chain designs with three empty control strains gave a value in 1% of cases (median 2.08, 5th percentile 0.84). Values in that range, when seen in few replicates, are hard to tell from nonspecific mating. For each scFv, signals with the empty controls are counted beside the result.

| CDR-H1 | CDR-H2 | CDR-H3 | mean log10 Kd (nM) | seen in | empty controls |
|---|---|---|---|---|---|
| GFDLNEYGIS | VIYADGMRTAYADSVK | GHNAGTFDV | 0.09 | 6 of 6 | 0 of 18 |
| GFELNEYGIS | VIYSDGRRTFYIDSVK | GRQAGTFDS | 0.51 | 6 of 6 | 0 of 18 |
| GFQLNEYGIS | VIYSDGRRTFYQDSVK | GEAAGTFDS | -0.15 | 6 of 6 | 0 of 18 |
| GFDLNEYGIS | VIYADGRRKFYADSVK | GQLAGTFDV | -0.11 | 6 of 6 | 0 of 18 |
| GFDLNEYGIS | VIYADGMRTAYVDDVK | GTNAGTFDV | -0.05 | 6 of 6 | 1 of 18 |
| GFTLNQYGIS | VIYSDGQRTFYSDSVK | GRTAGTFDS | -0.20 | 6 of 6 | 0 of 18 |
| GFDLNEYGIS | VIYADGMRTSYADSVK | GETAGTFDV | -0.25 | 6 of 6 | 1 of 18 |
| GFDLDEYGIS | VIYADGMRTAYADNVK | GNVAGTFDV | 0.09 | 6 of 6 | 0 of 18 |
| GFTLNEYGIS | VIYSDGRRTFYGDSVK | GRVAGTFDF | 0.08 | 6 of 6 | 0 of 18 |
| RFTLNSYGIS | VIYSDGRRTFYGDFVK | GRLAGTFDS | no signal | 0 of 6 | 0 of 18 |
| GFDLNEYGIS | VIYADGKRTAYADSVK | GEVAGTFDI | 0.41 | 6 of 6 | 0 of 18 |
| GFDLNEYGIS | VIYADGMRTVYSDSVK | GENAGTFDI | -0.16 | 6 of 6 | 2 of 18 |
| GFDLNEYGIS | VIYADGQRTAYADSVK | GEVAGTFDI | -0.28 | 6 of 6 | 0 of 18 |
| GFDLNEYGIS | VIYADGRRTFYTDSVK | GELAGTFDS | -0.32 | 6 of 6 | 0 of 18 |
| GFDLDEYGIS | VIYADGMRTAYADSVK | GNVAGTFDI | -0.40 | 6 of 6 | 0 of 18 |
| GFQLNDYGIS | VIYSDGRRTFYGDSVK | GKTAGTFDS | 0.61 | 6 of 6 | 0 of 18 |
| GFTLESYGIS | VIYSDGRRTFYGDSVK | GRLAGTYDS | no signal | 0 of 6 | 0 of 18 |
| GFSLNSYGIS | VIYSDGRRTFYADSVK | GATAGTFDS | -0.05 | 6 of 6 | 0 of 18 |
| GFELNSYGIS | VIYSDGRRTFYKDSVK | GWTAGTFDS | 0.41 | 4 of 6 | 1 of 18 |
| GFTLNSYGIS | VIYSDGRRLFYGPSVK | GRLAGTFDS | no signal | 0 of 6 | 0 of 18 |
| GFTLNSYGIS | VIYSDGRRTAYGDSVK | GREAGRFDS | no signal | 0 of 6 | 0 of 18 |
| GFELNSYGIS | VIYSDGRRTFYQDSVK | GKEAGTFDS | 0.30 | 6 of 6 | 0 of 18 |
| GFQLNEYGIQ | VIYSDGRRTFYGDSVR | GRAAGTGDL | no signal | 0 of 6 | 0 of 18 |
| GFTLESYGIS | VIYSDGQRTFYADSVK | GRAAGTFDS | 0.64 | 6 of 6 | 1 of 18 |
| GFSLDSYGIS | VIYSDGRRTFYGDSVK | GRAAGTFDS | 0.53 | 6 of 6 | 0 of 18 |
| GFDLNEYGIS | VIYADGVRTAYVDSVK | GNQAGTFDV | -0.49 | 6 of 6 | 0 of 18 |
| GFPLNSYGIS | VIYSDGRRTFYGDSVK | GRWAGTFTQ | 2.55 | 1 of 6 | 0 of 18 |
| GFEIEEYGIS | VIYADGVRTMYTDNVK | GNILGLAMT | 1.63 | 6 of 6 | 0 of 18 |
| GFDLEEMGIS | VIYADGARKVYTNSVK | GGFGGQMDV | no signal | 0 of 6 | 0 of 18 |
| GFNLNSYGIS | VIYSDGRRTFYGDSVK | DRAAGTFDS | no signal | 0 of 6 | 0 of 18 |
| QFTLNSYGIS | VIYSDGRRTFYGDSVK | GRAAGTFDV | no signal | 0 of 6 | 0 of 18 |
| GFDLNEYGIS | VIYADGRRTAYSDSVK | GEVAGTFVQ | -0.23 | 6 of 6 | 1 of 18 |
| GFDLNSYGIS | VIYSDGRRTFYQDAVK | GRTAGTFDS | 0.38 | 6 of 6 | 0 of 18 |
| GFDLNEYGIS | VIYADGRRTFYIDSVK | GNLAGTFDQ | -0.27 | 6 of 6 | 0 of 18 |
| GFDLNEYGIS | VIYADGRRTFYSDSVK | GQTGGTFDQ | -0.03 | 6 of 6 | 2 of 18 |
| GFDLQEYGIS | VIYADGLRTAYGNSVK | GQSNALITV | no signal | 0 of 6 | 0 of 18 |
| GFNLNEYGIS | VIYSDGRRTFYGDSVK | GRAAGTFDS | 0.26 | 7 of 12 | 0 of 36 |
| GFDLDEYGIS | VIYADGKRTAYADSVK | GTNAGTFDT | -0.20 | 6 of 6 | 0 of 18 |
| GFDLDEYGVS | VIYADGRRKKYADSVK | GTQGGTILA | 1.62 | 1 of 6 | 0 of 18 |
| GFTLNQYGIS | VIYSDGKRTFYGDSVK | GRAAGTFDS | no signal | 0 of 6 | 0 of 18 |
| PFDLNSYGIS | VIYSDGRRTFYGDSVK | GRAAGWFNS | no signal | 0 of 6 | 1 of 18 |
| GFELNSYGIS | VIYSDGRRTFYADSVK | GRVAGTFDS | 0.39 | 6 of 6 | 0 of 18 |
| GFDLDEYGIS | VIYADGRRTFYADSVK | GEAAGTFVS | -0.23 | 6 of 6 | 0 of 18 |
| GMDLEEYGIS | VIYADGVRVRYSNDVK | GQVDGILVV | no signal | 0 of 6 | 0 of 18 |
| KFTLNSYGIS | VIYSDGRRTFYGDSVK | GRAAGTFDS | no signal | 0 of 6 | 0 of 18 |
| GFTLNSYGIS | VIYSDGRRTFYGDSVK | GAAAGTFDS | 0.09 | 2 of 6 | 0 of 18 |
| GFNLDEYGIS | VIYADGYRRAYAQSVK | GYNMSLGVT | no signal | 0 of 6 | 0 of 18 |
| GFTLNSYGIS | VIYSDGRRTSYGDSVK | GRAIGTFDS | no signal | 0 of 6 | 1 of 18 |
| GFNLDEYGIS | VIYADGRRTFYADSVK | GNHAGTFDT | 0.52 | 6 of 6 | 0 of 18 |
| GFTLGEYGIS | VIYADGERTMYSNAVK | GNMAGTFDF | 0.25 | 6 of 6 | 0 of 18 |
| GFDLNEYGIS | VIYADGIRSKYTDNVK | GMLTGTAVQ | no signal | 0 of 6 | 0 of 18 |
| GFDLNEYGIS | VIYADGKRTFYSDDVK | GNAAGTFDS | -0.34 | 6 of 6 | 0 of 18 |
| GFDLNEYGIS | VIYADGRRTFYADSVK | GESAGTFDL | 0.10 | 6 of 6 | 0 of 18 |
| GFSLNDYGIS | VIYSDGRRTFYGDSVK | GRAAGTFES | 0.56 | 6 of 6 | 0 of 18 |
| GFHLNSYGIS | VIYSDGRRTFYGDSVA | GRVAGYFDS | no signal | 0 of 6 | 0 of 18 |
| GFGLNEYGIS | VIYSDGRRTFYGDSVK | GRQAGTFDT | 1.22 | 5 of 6 | 1 of 18 |
| GFTLNEYGIS | VIYSDGRRTFMGDSVK | GRATGTFDS | no signal | 0 of 6 | 0 of 18 |
| GFELNSYGIS | VIYSDGRRTFYADAVK | GRNAGTFDS | 0.70 | 6 of 6 | 1 of 18 |
| GFSLNSYGIS | VIYSDGRRTFYIDSVK | GNAAGTFDK | 0.64 | 6 of 6 | 0 of 18 |
| GFTLNEYGIS | VIYSDSRRTYYGDSVK | GRAAGTFDS | no signal | 0 of 6 | 0 of 18 |
| GFTLNDYGIS | VIYSDGRRTHYMDSVK | GRAAGTFDS | 1.80 | 6 of 6 | 1 of 18 |
| GFTLNSYGIS | VIYSDGRRTFYGDSVK | GRIAGCFDS | 1.20 | 1 of 6 | 0 of 18 |
| GFQLNSYGIS | VIYSDGRRTAYSDSVK | GRAAGTFDL | 1.57 | 1 of 6 | 0 of 18 |

The closing 6 entries, repeated:

CDR-H1	CDR-H2	CDR-H3	mean log10 Kd (nM)	seen in	empty controls
GFELNSYGIS	VIYSDGRRTFYADAVK	GRNAGTFDS	0.70	6 of 6	1 of 18
GFSLNSYGIS	VIYSDGRRTFYIDSVK	GNAAGTFDK	0.64	6 of 6	0 of 18
GFTLNEYGIS	VIYSDSRRTYYGDSVK	GRAAGTFDS	no signal	0 of 6	0 of 18
GFTLNDYGIS	VIYSDGRRTHYMDSVK	GRAAGTFDS	1.80	6 of 6	1 of 18
GFTLNSYGIS	VIYSDGRRTFYGDSVK	GRIAGCFDS	1.20	1 of 6	0 of 18
GFQLNSYGIS	VIYSDGRRTAYSDSVK	GRAAGTFDL	1.57	1 of 6	0 of 18

The measurements come from Li et al. 2023 (doi:10.1038/s41467-023-39022-2) through the FLAb antibody collection.